This is an account of results in ChEMBL document CHEMBL2203133 (J Med Chem, 2012).

The target in this test is T1, Serine/threonine-protein kinase Chk1 (Homo sapiens, UniProt O14757).
T1 sequence (O14757 whole entry): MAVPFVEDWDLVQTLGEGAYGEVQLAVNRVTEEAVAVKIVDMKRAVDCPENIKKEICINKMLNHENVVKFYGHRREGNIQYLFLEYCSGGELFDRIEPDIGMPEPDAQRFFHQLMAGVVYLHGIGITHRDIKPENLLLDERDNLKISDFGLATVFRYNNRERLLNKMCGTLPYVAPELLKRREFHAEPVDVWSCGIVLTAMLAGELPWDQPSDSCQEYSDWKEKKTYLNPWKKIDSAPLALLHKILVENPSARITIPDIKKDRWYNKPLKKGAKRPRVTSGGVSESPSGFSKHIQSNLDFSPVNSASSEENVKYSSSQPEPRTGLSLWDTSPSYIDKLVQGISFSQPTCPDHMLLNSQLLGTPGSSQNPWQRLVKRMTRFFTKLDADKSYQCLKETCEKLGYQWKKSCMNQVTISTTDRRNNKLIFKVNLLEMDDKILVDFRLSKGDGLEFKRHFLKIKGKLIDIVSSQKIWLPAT
For the compound `CNc1cc(Nc2cnc(C#N)c(O[C@H]3CCNC3)n2)ncc1-c1cnn(C)c1`, the IC50 – broadly, the concentration at which inhibition is half-maximal – was below 1 nM.

Turning to `CNc1cc(Nc2cnc(C#N)c(O[C@@H]3CCNC3)n2)ncc1-c1cnn(C)c1`, the IC50 is below 1 nM.

`CNc1cc(Nc2cnc(C#N)c(O[C@@H]3CCNC3)n2)ncc1C(=O)OC` showed an IC50 of 5.4 nM.
